Where two headings read alike, the source gives them in different places.
Assay: Body temperature of mice after intravenous injection
Assay type: in vivo
Method: Type: Out-breed, white NMRI
Average body weight: 24-27 gm
Diet: Standard food pellet
Mice fasted 12-15 hrs. prior to testing (water given during this period)
Mice all separated from one another
Mice kept in quiet and dark environment
Testing time: 1 p.m.-3 p.m. each day
Test solution is prepared by:
(b) dissolving a known amount of the refined brain extract in 0.4 ml of trishydrochloric buffer and adjusting the pH of the solution to from about 7.0 to about 7.4 by titrating with microdrops of 1 M or 0.1 M sodium hydroxide solution.
Volume of solution injected into mice:
Solution is at room temperature when injected into mice.
Mouse is placed in restrainer
Injection is made in the tail vein
Injection time: 2 minutes
Body temperature is measured by inserting a thermistor into the anal cavity to a depth of 11/2 cm (thermistor is made by Thermovit, Fu. Armatherm, Lemgo, W. Germany)
Temperature measurements are begun immediately after injection, i.e., 2 minutes after injection started
The extract obtained from the brain of 40 lungfish is used. Five mice are used in obtaining the data on the aroused lungfish and nine mice are used for the data on the estivating lungfish.

For `CC(=O)[O-].[Na+]` [1.0 M SODIUM ACETATE, SODIUM ACETATE], the “body temperature at 2 min” value was 36.5 and the “body temperature at 2 min” value (listed as 3.0 M SODIUM ACETATE) was 36.0.
